# Experimental data from the supplement of paper PMC9135407.
# Structures can show the parent of a compound that is named as a salt. The list shows a part of the results, in another mix than the full data.
# Test system: primary human hepatic stellate cells (donor 1)
# Assay: ACTA2 mRNA fold change vs DMSO (normalised to PSMB2); higher = more ACTA2 expression
# Conditions: 33.3333 µM; 48 h
# Method: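 Secondary qRT-PCR screen in primary human HSCs (donor 1), 384-well plates, with compounds dispensed in quadruplicate and incubated for 48 h. Cells-to-CT lysates were used for multiplexed TaqMan qPCR of ACTA2 or COL1A1 with PSMB2 as reference. Fold changes versus DMSO come from a linear model (Ct_gene ~ Ct_PSMB2 + plate + chemical). A hit is defined as COL1A1 and ACTA2 FC <0.5 (FDR <0.05) with PSMB2 between 0.2 and 2.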
row,Structure (SMILES),ACTA2 mRNA fold change
1,N/C(=N/CCc1ccc(I)cc1)SCCCc1cnc[nH]1 [Iodophenpropit dihydrobromide],0.0708
